Molecular target: Bruton's Tyrosine Kinase (BTK), inactivated state (Homo sapiens (Human), UniProt Q06187)
Assay: Bruton's Tyrosine Kinase (BTK) Inhibition TR-FRET (Time Resolved FRET) competition assay
Type: binding
Details: Kinase Tracer 178, BTK-Eu, 18-24 h at 14° C.
Method: Bruton's Tyrosine Kinase (BTK) Inhibition TR-FRET (Time Resolved FRET) Assay
This BTK competition assay measures compound potency (IC50) for the inactivated state of Bruton's Tyrosine Kinase using FRET (Forster/Fluorescence Resonance Energy Transfer) technology. The BTK-Eu complex was incubated on ice one hour prior to use at a starting concentration of 50 nM BTK-Bioease™: 10 nM Eu-streptavidin (Perkin-Elmer Catalog# AD0062). The assay buffer consisted of 20 mM HEPES (pH 7.15), 0.1 mM DTT, 10 mM MgCl2, 0.5 mg/ml BSA with 3% Kinase Stabilizer (Fremont Biosolutions, Catalog # STB-K02). After 1 h, the reaction mixture from above was diluted 10 fold in assay buffer to make 5 nM BTK: 1 nM Eu-Streptavidin complex (donor fluorophore). […]
After the incubation the plates were read on a BMG Pherastar Fluorescent plate reader (or equivalent) and used to measure the emission energy from the europium donor fluorophore (620 nm emission) and the FRET (665 nm emission). […] Percent of maximal FRET was calculated using following equation: % max FRET=100×[(FSRcmpd−FSRmean min)/(FSRmean max−FSRmean min)] where FSR=FRET Signal ratio. % Max FRET curves were plotted in Activity Base (Excel) and the IC50(%), hill slope, z′ and % CV were determined. […]

By UniProt entry, the sequences of proteins in these tests, tags left out. Where a name states a change or a piece, a line headed by the entry shows the natural chain unless it says otherwise.
UniProt Q06187: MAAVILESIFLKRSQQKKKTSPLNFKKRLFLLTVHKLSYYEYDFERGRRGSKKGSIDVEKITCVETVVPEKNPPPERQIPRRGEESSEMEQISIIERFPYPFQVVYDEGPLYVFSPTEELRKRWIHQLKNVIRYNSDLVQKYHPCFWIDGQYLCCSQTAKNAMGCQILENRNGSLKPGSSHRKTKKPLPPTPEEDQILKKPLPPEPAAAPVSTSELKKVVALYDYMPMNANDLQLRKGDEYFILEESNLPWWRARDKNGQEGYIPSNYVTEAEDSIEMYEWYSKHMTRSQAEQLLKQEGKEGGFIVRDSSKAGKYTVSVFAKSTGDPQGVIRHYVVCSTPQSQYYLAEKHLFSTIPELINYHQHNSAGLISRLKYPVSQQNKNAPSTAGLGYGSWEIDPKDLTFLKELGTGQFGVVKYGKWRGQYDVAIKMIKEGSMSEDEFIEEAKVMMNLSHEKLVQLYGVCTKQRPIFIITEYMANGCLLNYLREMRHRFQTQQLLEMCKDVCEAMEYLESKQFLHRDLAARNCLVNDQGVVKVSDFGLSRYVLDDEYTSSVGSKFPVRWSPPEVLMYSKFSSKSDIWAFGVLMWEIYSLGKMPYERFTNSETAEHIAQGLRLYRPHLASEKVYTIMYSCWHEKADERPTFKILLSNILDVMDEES

Row | IC50 | SMILES
1 | 254 nM | NC(=O)c1nc(N2CCC[C@@H](NC(=O)N3Cc4ccccc4C3)C2)sc1Nc1ccccn1 [Compound 1, 1,3-Dihydro-isoindole-2-carboxylic acid {(R)-1-[4-carbamoyl-5-(pyridin-2-ylamino)-thiazol-2-yl]-piperidin-3-yl}-amide]
2 | 5370 nM | NC(=O)c1nc(N2CCC[C@@H](NC(=O)CNc3cccc(Cl)c3)C2)sc1Nc1ccccn1 [Compound 11, 2-{(R)-3-[2-(3-Chloro-phenylamino)-acetylamino]-piperidin-1-yl}-5-(pyridin-2-ylamino)-thiazole-4-carboxylic acid amide]
